Test results from paper PMC3983368 (Journal of Medicinal Chemistry, 2014).

Chains of the proteins cited; added tags and fusions are not shown. Residues count along the entry.
UniProt Q00961, 20-1237: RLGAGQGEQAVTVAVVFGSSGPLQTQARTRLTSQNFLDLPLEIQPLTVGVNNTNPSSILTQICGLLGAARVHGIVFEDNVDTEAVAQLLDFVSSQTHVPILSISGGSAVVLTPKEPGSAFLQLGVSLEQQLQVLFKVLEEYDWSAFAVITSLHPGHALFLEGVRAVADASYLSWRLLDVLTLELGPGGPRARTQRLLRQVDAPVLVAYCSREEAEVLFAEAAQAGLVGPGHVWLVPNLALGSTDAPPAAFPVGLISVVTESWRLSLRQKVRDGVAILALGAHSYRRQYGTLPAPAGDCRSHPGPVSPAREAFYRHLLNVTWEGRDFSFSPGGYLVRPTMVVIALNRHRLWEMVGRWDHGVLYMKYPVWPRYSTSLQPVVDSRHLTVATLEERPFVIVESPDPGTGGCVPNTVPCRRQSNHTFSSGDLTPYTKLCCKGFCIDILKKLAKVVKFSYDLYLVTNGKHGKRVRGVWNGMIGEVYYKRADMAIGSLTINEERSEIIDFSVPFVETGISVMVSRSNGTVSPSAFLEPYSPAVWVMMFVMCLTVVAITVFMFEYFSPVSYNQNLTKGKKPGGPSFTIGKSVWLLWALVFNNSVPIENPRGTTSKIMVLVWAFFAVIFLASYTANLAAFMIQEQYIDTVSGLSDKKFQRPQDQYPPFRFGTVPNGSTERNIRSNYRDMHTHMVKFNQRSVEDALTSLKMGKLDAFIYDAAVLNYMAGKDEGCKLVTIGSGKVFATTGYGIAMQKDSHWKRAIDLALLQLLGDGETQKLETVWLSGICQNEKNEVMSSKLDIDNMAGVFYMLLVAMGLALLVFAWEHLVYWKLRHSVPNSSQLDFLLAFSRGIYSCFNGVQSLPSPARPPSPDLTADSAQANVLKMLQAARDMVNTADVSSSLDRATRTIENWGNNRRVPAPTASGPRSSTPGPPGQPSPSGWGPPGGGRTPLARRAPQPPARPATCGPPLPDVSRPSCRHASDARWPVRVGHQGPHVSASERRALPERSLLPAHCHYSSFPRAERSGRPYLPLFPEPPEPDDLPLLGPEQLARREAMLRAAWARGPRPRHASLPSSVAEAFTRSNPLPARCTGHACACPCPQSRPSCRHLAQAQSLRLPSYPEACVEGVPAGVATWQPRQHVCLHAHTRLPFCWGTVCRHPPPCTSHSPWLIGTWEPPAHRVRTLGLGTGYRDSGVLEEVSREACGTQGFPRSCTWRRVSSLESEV

Molecular target: GluN1/GluN2C (Rattus norvegicus, UniProt P35439+Q00961)
Details: 68 μM compound

effect on the EC50 of glycine or glutamate: did not detectably alter
SMILES: COC(=O)c1ccc(C2C(C(C)=O)=C(O)C(=O)N2CCc2c[nH]c3ccccc23)cc1 (stereo not shown) [Compound 1, Methyl 4-(1-(2-(1H-Indol-3-yl)ethyl)-3-acetyl-4-hydroxy-5-oxo-2,5-dihydro-1H-pyrrol-2-yl)benzoate]
